Our source for the IC50 values is PMC2893246 (Assay and drug development technologies, 2010).

Sequences of proteins named here, by UniProt entry; tags and fusion partners are left off. A change or cut given only in a name is not applied to a line headed by its entry.
UniProt P08482: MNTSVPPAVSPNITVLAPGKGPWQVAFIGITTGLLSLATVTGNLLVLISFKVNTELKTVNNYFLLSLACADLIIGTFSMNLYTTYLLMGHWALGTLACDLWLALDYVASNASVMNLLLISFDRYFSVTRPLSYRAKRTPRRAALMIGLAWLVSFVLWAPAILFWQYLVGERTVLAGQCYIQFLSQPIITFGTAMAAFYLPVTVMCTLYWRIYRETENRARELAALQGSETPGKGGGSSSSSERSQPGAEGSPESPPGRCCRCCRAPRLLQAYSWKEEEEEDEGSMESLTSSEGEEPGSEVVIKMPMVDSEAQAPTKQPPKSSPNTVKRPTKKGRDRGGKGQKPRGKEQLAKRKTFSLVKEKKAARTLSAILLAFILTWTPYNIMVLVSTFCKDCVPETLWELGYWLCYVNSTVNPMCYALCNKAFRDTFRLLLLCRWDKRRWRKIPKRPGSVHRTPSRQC

The target of this assay is murine M1 muscarinic acetylcholine receptor (Rattus norvegicus, UniProt P08482). Nature of the assay: cell-based.

Each structure is given as a SMILES string.

As for `CC(C)[N+]1(C)[C@@H]2CC[C@H]1C[C@@H](OC(=O)C(CO)c1ccccc1)C2` (stereo partly shown) [Ipratropium, ipratropium], 5.9 nM corresponded to half-maximal inhibition (IC50).
